Test results: ChEMBL document CHEMBL4602692, “Synthesis and Biological Evaluation of Tryptamines Found in Hallucinogenic Mushrooms: Norbaeocystin, Baeocystin, Norpsilocin, and Aeruginascin” (J Nat Prod, 2020)

Chains of the proteins cited; added tags and fusions are not shown.
UniProt P28223, whole entry: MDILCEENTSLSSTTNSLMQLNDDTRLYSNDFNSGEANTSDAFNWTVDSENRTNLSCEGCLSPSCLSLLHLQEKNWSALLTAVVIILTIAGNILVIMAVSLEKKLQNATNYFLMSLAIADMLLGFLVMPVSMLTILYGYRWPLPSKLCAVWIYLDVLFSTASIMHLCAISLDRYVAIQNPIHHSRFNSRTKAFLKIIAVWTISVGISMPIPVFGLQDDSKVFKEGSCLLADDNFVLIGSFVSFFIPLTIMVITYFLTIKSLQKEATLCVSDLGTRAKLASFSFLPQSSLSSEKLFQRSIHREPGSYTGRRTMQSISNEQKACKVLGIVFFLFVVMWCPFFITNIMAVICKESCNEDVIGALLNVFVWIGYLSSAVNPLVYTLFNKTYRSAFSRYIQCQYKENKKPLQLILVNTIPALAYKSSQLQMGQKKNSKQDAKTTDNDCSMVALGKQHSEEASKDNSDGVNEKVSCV

Molecular target: 5-hydroxytryptamine receptor 2A (Homo sapiens, UniProt P28223)
Assay: Agonist activity at human 5-HT2A receptor expressed in Flp-In T-REx 293 cells assessed as induction of Gq-mediated calcium flux incubated for 1 hr by Flou4-AM dye based FLIPR assay
Type: functional, cell-based

CNCCc1c[nH]c2cccc(O)c12
EC50: 8.4 nM
